Source: US7312231B2, “Quinuclidine carbamate derivatives and their use as M3 antagonists” (priority 2000, dated 2007)

Amino acid sequences for entries named in this document (tags omitted).
UniProt P20309, whole entry: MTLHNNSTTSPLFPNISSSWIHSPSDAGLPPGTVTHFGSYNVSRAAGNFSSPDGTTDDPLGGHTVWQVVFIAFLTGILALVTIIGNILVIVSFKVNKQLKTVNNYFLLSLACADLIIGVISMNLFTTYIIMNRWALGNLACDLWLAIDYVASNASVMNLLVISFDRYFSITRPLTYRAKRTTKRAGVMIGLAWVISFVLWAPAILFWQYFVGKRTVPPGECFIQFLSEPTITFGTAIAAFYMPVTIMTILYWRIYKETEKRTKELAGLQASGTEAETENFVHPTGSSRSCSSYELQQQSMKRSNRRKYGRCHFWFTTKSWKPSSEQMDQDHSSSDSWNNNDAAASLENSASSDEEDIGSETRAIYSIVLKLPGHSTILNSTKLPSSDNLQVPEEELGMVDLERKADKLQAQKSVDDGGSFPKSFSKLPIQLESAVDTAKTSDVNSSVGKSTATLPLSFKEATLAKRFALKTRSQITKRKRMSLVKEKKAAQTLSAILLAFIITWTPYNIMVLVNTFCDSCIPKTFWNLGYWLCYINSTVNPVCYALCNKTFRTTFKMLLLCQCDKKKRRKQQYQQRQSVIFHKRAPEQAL

Molecular target: human muscarinic M3 receptors (Homo sapiens, UniProt P20309)
Assay: biochemical

## CC(C)[N+]1(C)[C@@H]2CC[C@H]1C[C@@H](OC(=O)C(CO)c1ccccc1)C2 (stereo partly shown) [Ipratropium, reference compound]
  IC50: 3 nM
